The test system of test [1] is HL-60. As to the kind of experiment: Cell proliferation assay: GI50. To be noted: read-out: HL-60 GI50; 48 h.
Test [2] concerns HL-60. Kind of test: Differentiation-apoptosis assay, CD11b / annexin-V / Sytox Green / myeloid markers flow cytometry. Type of test: cell-based, human. To be noted: HL-60, daily 25% GI50, 48 h.

One compound from publication PMC11219871, “Epigenetic-based differentiation therapy for Acute Myeloid Leukemia” (Nature Communications, 2024) can be followed below.

As a reminder, the GI50 is the concentration giving 50% growth inhibition.

For `COc1cc2c(OC3CCN(C)CC3)cc(-c3ccc(C)o3)nc2cc1OCCCN1CCCC1`, the GI50 with HL-60 [1] was greater than 10 µM. Moreover, in the test on HL-60 [2], the “Annexin V (%) Replicate 1” value is listed as 0.08%, the “Annexin V (%) Replicate 2” value was 0.23%, the “Annexin V (%) Replicate 3” value came out at 0.12% and the “CD11b (%) Replicate 1” value turned out to be 3.10%. In the test with HL-60 [2], the “CD11b (%) Replicate 2” value is given as 1.50% and the “CD11b (%) Replicate 3” value is given as 11.30%. In addition, in the test with HL-60 [2] (mean of three), the “Annexin V + (%)” value was found to be 0.15% and the “CD11b+ (%)” value was found to be 5.30%.
